The source made the active and inactive calls. The rule behind the calls is not given here.
Experiments:
[1] = test system: Oryctolagus cuniculus; test: Antiglaucoma activity in hypertonic saline-induced New Zealand albino rabbit transient ocular hypertensive model assessed as IOP lowering efficacy at 1% dose administered topically immediately after hypertonic saline injection measured at 240 mins post dose; type: functional
[2] = test system: Oryctolagus cuniculus; test: Antiglaucoma activity in carbomer-induced New Zealand albino rabbit transient ocular hypertensive model assessed as reduction in IOP at 1% dose administered topically everyday for 5 days measured 1 hr post drug instillation; type: functional, organism-based
[3] = test system: Oryctolagus cuniculus; test: Antiglaucoma activity in carbomer-induced New Zealand albino rabbit transient ocular hypertensive model assessed as reduction in IOP at 1% dose administered topically measured after 24 hrs; type: functional, organism-based
[4] = test system: Oryctolagus cuniculus; test: Antiglaucoma activity in hypertonic saline-induced New Zealand albino rabbit transient ocular hypertensive model assessed as IOP lowering efficacy at 1% dose administered topically immediately after hypertonic saline injection measured at 60 mins post dose; type: functional
[5] = test system: Oryctolagus cuniculus; test: Antiglaucoma activity in hypertonic saline-induced New Zealand albino rabbit transient ocular hypertensive model assessed as IOP lowering efficacy at 1% dose administered topically immediately after hypertonic saline injection measured at 120 mins post dose; type: functional
[6] = test system: Thoracic aorta; test: Vasodilatory activity in denuded Wistar rat thoracic aorta assessed as relaxation of L-phenylephrine-induced contractions of aortic strips at 100 uM relative to control
[7] = Induction of NO release assessed as nitrite formation at 0.1 mM in phosphate buffer saline at pH 7.4 in presence of 5 mM of L-cysteine measured after 1 hr by Griess assay; type: functional
[8] = Induction of NO release assessed as nitrite formation at 0.1 mM in phosphate buffer saline at pH 7.4 in presence of 5 mM of L-cysteine measured after 6 hrs by Griess assay; type: functional

## O=[N+]([O-])C(c1ccccc1)[N+](=O)[O-]
[1]
  Activity: Active
[2]
  Activity: Active
[3]
  Activity: Dose-dependent effect
[4]
  Activity: -11.7 mmHg
[5]
  Activity: -2.3 mmHg
[6]
  Activity: -6.5 mmHg
[7]
  Activity: 3%
[8]
  Activity: 30%

Reference: ChEMBL document CHEMBL4130525, “gem-Dinitroalkyl Benzenes: A Novel Class of IOP-Lowering Agents for the Treatment of Ocular Hypertension” (ACS Med Chem Lett, 2017)
